One assay has as its target T1, human APLNR (Homo sapiens, UniProt P35414).
T1 sequence (P35414 1-380): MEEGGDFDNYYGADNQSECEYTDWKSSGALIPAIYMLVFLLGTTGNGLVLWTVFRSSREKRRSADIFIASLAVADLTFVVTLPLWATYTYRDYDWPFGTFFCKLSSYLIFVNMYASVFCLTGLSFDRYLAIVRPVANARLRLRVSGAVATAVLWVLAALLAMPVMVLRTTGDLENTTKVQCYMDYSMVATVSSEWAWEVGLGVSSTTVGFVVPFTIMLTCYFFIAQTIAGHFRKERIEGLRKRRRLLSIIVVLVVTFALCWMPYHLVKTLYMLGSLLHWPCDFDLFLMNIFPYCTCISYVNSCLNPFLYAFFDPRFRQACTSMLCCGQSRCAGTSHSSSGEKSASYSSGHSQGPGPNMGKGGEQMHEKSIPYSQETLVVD
Put plainly: AP-ELA binding assay, 293T cells overexpressing receptor. The note with it: HEK293T overexpression.

Assay [1] concerns hESCs. Put plainly: stress-induced apoptosis of hESCs by ionizing radiation. The format is cell-based, human. The following applies: ELA-treated hESCs.
The test system of assay [2] is hESCs. The experiment in a line: insulin replacement assay in hESCs. The note with it: cell index measurements over 5 days. The format is cell-based, human. The protocol: For insulin replacement assays, SHEF4 or HESC3 hESCs were cultured in TSER-E5 (Stem Cell Technologies) supplemented with TGF-β (5 ng/ml, R&D Systems) and bFGF (100 ng/ml, Invitrogen) with and without INSULIN (10 ug/ml, SIGMA).

Assay [3] relates to hESCs. Put plainly: xCELLigence real time growth assay, cell counts and colony size of hESCs. Type of assay: cell-based, human. The note with it: cell counts, colony size, real-time cell indices; peptide 2.5 uM (10 μg/ml). Here is the method: Feeder-free hESCs were cultured in clumps in mTSER1 (Stem Cell Technologies) on Matrigel (BD 354277).
hESCs were dissociated into single cells using Accutase (Stem Cell Technologies) and plated in the presence of 10 μM Y-27632 (ROCK inhibitor) for 12 hours (Watanabe et al., 2007).
For xCELLigence real time growth assays, 4000 cells were plated per well of an E-plate (ACEA Biosciences) with media changes every 48 hours.
Recombinant ELA was added at 2.5 uM (or 10 μg/ml). Cell cycle studies were performed with Click-iT EDU staining kit (Invitrogen) and by performing a double thymidine block (2.5 mM thymidine; 16 hour block, 8 hour release, 16 hour block) followed by DAPI staining for DNA content at the indicated times following release.

With “AP-ELA: mature C-terminal 32-mer of ELA cloned in frame with alkaline phosphatase, secreted from 293T cells”, the “cell-surface binding of AP-ELA to human APLNR” value in the assay with human APLNR is “sufficient to afford cell-surface binding”.
As to QRPVNLTMRRKLRKHNCLQRRCMPLHSRVPFP [ELA], the “resistance to gamma irradiation relative to control” value in the assay on hESCs [1] is given as 5 times. Further, the “replacement of INSULIN in hESC growth, cell index” value in the assay on hESCs [2] is recorded as “partially replaces INSULIN”. Moreover, the “growth of hESCs relative to untreated cells” value with hESCs [3] is “dose-dependent enhanced growth”.

The values are drawn from patent publication US9902761B2, “Polypeptides, nucleic acids and uses thereof” (AGENCY FOR SCIENCE, TECHNOLOGY AND RESEARCH, priority 2013, dated 2018).
